# In patent US20060211761A1, “Hmg-coa-reductase inhibitors” (priority 2002, published 2006):
# Experiments:
# [1] = biological target: HMG-CoA reductase; test: in-vitro HMG-CoA reductase enzyme assay ([14C]mevalonate formation, liver microsomes), Table 1; type: biochemical; conditions: preincubated 37° C. 30 minutes, [14C] HMG-CoA substrate
# Method: (§1) The compounds described herein have been screened in an in-vitro HMG-CoA reductase enzyme assay as described by Kubo et al., Endocrinology, 120, 214 (1987); and Hellar et al., Biochem. Biophys. Res. Comm., 50, 859 (1973).
# (§2) HMG-CoA reductase is regarded as a rate-limiting enzyme in cholesterol biosynthesis, catalyzing the following reaction: [^14C]HMG-CoA+2NADPH+2H+[^14C]mevanolate+CoA+2NADP+microsomes, utilizing 2.5 mM [^14C] HMG-CoA as a substrate.
# (§3) The reaction was carried out in presence of 100 mM KH2PO4, 20 mM G-6-P, 2.5 mM NADPH, 10 mM EDTA, 5 mM DTT and […], at 37° C. for 15 minutes and quantitating [^14C] mevalonate as an end product. For IC50 determinations, the compounds were dissolved in 1% dimethylsulfoxide, and were preincubated with liver microsomes at 37° C. for 30 minutes. The activity of several representative examples of particular compounds appears in Table 1, and is compared with that of atorvastatin.
# [2] = biological target: HMG CoA Reductase; test: HMG CoA reductase inhibition, similar experiments with phenylhydroxy compounds of U.S. Pat. No. 5,385,929, Table 2; type: biochemical; conditions: compared to atorvastatin
# Method: as §1, §2, §3
# The activities of several phenylhydroxy compounds disclosed in U.S. Pat. No. 5,385,929 were compared to that of atorvastatin in similar experiments, and the results are presented in Table 2.
structure (smiles),measurement,setting,value
CC(C)c1c(C(=O)Nc2ccccc2)c(-c2ccccc2)c(-c2ccc(F)cc2)n1CC[C@@H](O)C[C@@H](O)CC(=O)O [Atorvastatin],IC50,[1],0.0646 nM
same,IC50,[2],0.525 nM
